From patent US20240269092A1 (priority 2021, published 2024)

Key:
[1] = human, in vivo, iv
[2] = tested on: Chinese patients with advanced solid tumors; details: in vivo

## mitoxantrone hydrochloride liposome [Mit-Lipo]
[1]; 12 mg/m2
  AUC0-t, free mitoxantrone: 9.66 ± 4.08 µg·h/mL
  AUC0-t, total mitoxantrone: 1068.35 ± 408.37 µg·h/mL
  AUC0-∞, free mitoxantrone: 10.18 ± 4.34 µg·h/mL
  AUC0-∞, total mitoxantrone: 1089.74 µg·h/mL
  Cmax, free mitoxantrone: 51.57 ± 12.61 ng/mL
  Cmax, total mitoxantrone: 8890.00 ± 1158.65 ng/mL
  t1/2, free mitoxantrone: 125.82 ± 62.06 h
  t1/2, total mitoxantrone: 85.40 ± 28.53 h
[1]; 16 mg/m2
  AUC0-t, free mitoxantrone: 11.74 ± 5.24 µg·h/mL
  AUC0-t, total mitoxantrone: 1175.28 ± 470.34 µg·h/mL
  AUC0-∞, free mitoxantrone: 12.46 ± 5.78 µg·h/mL
  AUC0-∞, total mitoxantrone: 1220.23 µg·h/mL
  Cmax, free mitoxantrone: 81.43 ± 15.31 ng/mL
  Cmax, total mitoxantrone: 11701.67 ± 1488.36 ng/mL
  t1/2, free mitoxantrone: 72.88 ± 18.77 h
  t1/2, total mitoxantrone: 68.78 ± 31.51 h
[1]; 20 mg/m2
  AUC0-t, free mitoxantrone: 14.25 ± 6.44 µg·h/mL
  AUC0-t, total mitoxantrone: 1365.07 ± 214.17 µg·h/mL
  AUC0-∞, free mitoxantrone: 15.22 ± 6.14 µg·h/mL
  AUC0-∞, total mitoxantrone: 1435.18 µg·h/mL
[2]
  dose limiting toxicity (DLT) events: No dose limiting toxicity (DLT) events occurred

Where two headings read alike, the source gives them in different places.
